Results published in paper PMC3488302 (MedChemComm, 2012).

Test: RRCK permeability
Details: MDCK

Molecule CC(C)C[C@@H]1NC(=O)[C@H](Cc2ccc(O)cc2)N(C)C(=O)[C@H]2CCCN2C(=O)[C@H](CC(C)C)NC(=O)[C@H](CC(C)C)N(C)C(=O)[C@@H](CC(C)C)N(C)C1=O [Compound 1] has a recovery of 53.7%.
